Experimental data from ChEMBL document CHEMBL3272349, “Quantitative structure-activity relationships of antimalarial and dihydrofolate reductase inhibition by quinazolines and 5-substituted benzyl-2,4-diaminopyrimidines” (J Med Chem, 1977).

Biological target: T1, Dihydrofolate reductase (Enterococcus faecium) (UniProt P00380)
T1 sequence (whole entry): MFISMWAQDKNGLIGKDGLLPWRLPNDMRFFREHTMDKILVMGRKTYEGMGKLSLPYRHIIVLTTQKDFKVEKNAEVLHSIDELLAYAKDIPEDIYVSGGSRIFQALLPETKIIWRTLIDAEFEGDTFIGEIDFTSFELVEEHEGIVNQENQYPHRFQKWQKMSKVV

- log(1/I50): 8.15
Compound: Nc1nc(N)c2cc(Sc3ccc4ccccc4c3)ccc2n1
